Test [1] addresses 5-hydroxytryptamine receptor 2A (Homo sapiens, UniProt P28223). Description: Displacement of [3H]ketanserin from human recombinant 5HT2A receptor expressed in mouse NIH3T3 cells. The format is cell-based. On the technique in general: Displacement assays read how much labelled ligand stays bound in the presence of the test substance.
The target of test [2] is 5-hydroxytryptamine receptor 2B (Homo sapiens, UniProt P41595). Kind of test: Antagonist activity at human recombinant 5HT2B receptor expressed in CHO cells assessed as increase in calcium levels. Type of test: functional, cell-based.

Amino acid sequences for entries named in this document (tags omitted).
UniProt P28223, whole entry: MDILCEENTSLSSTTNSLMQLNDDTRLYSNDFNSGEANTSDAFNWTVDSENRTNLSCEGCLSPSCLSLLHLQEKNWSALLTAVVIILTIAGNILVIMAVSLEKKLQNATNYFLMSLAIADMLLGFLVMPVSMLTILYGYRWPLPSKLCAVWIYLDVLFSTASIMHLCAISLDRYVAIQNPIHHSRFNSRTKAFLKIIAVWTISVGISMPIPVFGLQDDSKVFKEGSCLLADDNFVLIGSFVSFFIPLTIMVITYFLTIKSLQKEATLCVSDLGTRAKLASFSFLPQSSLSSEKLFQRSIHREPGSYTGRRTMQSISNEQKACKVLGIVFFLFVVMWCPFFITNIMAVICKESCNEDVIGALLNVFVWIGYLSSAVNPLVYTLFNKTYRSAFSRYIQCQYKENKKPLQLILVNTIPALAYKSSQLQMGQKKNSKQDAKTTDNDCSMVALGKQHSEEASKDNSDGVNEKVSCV
UniProt P41595, whole entry: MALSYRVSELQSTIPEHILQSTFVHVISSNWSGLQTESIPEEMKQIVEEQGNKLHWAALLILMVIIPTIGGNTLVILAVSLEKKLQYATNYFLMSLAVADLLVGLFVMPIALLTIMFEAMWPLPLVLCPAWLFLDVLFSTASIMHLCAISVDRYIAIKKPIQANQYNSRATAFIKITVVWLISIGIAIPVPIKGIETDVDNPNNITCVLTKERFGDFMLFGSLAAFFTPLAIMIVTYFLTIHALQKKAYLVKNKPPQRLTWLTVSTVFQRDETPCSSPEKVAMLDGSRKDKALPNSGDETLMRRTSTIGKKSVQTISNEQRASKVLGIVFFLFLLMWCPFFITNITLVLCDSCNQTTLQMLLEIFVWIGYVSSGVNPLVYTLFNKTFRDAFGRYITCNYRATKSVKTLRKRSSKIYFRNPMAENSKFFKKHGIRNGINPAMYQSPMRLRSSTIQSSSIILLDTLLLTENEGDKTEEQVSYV

In ChEMBL document CHEMBL1141597, “2-Alkyl-4-aryl-pyrimidine fused heterocycles as selective 5-HT2A antagonists” (Bioorg Med Chem Lett, 2008) one finds Ki and Activity data, which are given here for three compounds.

pKi: −log10 of the molar value. Calls of active or inactive are those of the source. The rule behind the calls is not given here.

For orientation: pKi means the negative decadic logarithm of the Ki, by convention in mol/L.

On to `Cc1ccc(-c2nc(C3CCCC3)nc3c2CCNCC3)cc1`, for which the pKi in test [1] is 8.60.
In the case of `CCC(C)c1nc2c(c(-c3ccc(F)cc3)n1)CNCC2` (stereo not drawn), in test [1], the pKi is 7.96.
For the compound `CC(C)c1nc2c(c(-c3ccc(F)cc3)n1)CCNCC2`, the result in test [2] was inactive.
